The numbers were not newly measured in publication PMC6409773 (Marine Drugs, 2019), which cites them from elsewhere.

Sequences of proteins named here, by UniProt entry; tags and fusion partners are left off.
UniProt P25103, whole entry: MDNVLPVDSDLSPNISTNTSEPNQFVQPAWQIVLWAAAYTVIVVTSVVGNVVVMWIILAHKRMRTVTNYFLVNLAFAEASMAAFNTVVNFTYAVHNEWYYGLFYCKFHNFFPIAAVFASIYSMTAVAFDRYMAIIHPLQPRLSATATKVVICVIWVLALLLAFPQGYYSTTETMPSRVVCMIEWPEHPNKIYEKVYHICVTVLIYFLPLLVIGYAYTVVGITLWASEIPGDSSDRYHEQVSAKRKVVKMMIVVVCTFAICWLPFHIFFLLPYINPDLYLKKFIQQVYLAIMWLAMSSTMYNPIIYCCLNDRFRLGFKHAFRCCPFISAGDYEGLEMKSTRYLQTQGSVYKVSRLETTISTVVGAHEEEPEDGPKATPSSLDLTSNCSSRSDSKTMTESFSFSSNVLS

For orientation: EC50 means the concentration needed to bring the measured effect to its halfway point.

This series concerns the target NK1 (h) Tachykinin (Homo sapiens, UniProt P25103). The arrangement: method as in Eurofins Panlab. The note with it: as reported by Eurofins Panlab, ref Eurofins Panlab, read-out: Reference Agonists of Respective Target Receptors EC50; cited from earlier work.

As to “[Sar9, Met(O2)11]-Substance P [[Sar9, Met(O2)11]-SP]”, the EC50 is 0.094 nM.
